Measured values reported in US12234240B2, “Substituted imidazo[5,1-d][1,2,3,5]tetrazines for the treatment of cancer” (The Board of Trustees of the University of Illinois, priority 2018, dated 2025).

Key:
U118MG cells = assay: Cell viability, Alamar Blue, 7-day incubation, U118MG; type: cell-based; conditions: Homo sapiens, U-118-MG, 168 h, MGMT +, error SEM
Method: Anticancer activity of C8 substituted imidazotetrazines. With a suite of imidazotetrazines in hand, each compound was evaluated against a panel of human GBM cell lines (Table 1a, Table 1b).

U3054MG GBM cell line = assay: Cell viability, Alamar Blue, 7-day incubation, patient-derived U3054MG; conditions: Homo sapiens, 168 h, read-out: IC50 U3054MG
[1] = Table 1a, 7 days, read-out: IC50 U118MG
[2] = Table 1b, read-out: 7-day IC50 U118MG

| SMILES | IC50 (U118MG cells; [1]) | IC50 (U3054MG GBM cell line) | IC50 (U118MG cells; [2]) |
| --- | --- | --- | --- |
| Cn1nnc2c(-c3ccccc3)ncn2c1=O [Compound 23, 3-methyl-8-phenylimidazo[5,1-d][1,2,3,5]tetrazin-4(3H)-one] | 3 ± 1 µM | 18 ± 1 µM |  |
| Cn1nnc2c(Cl)ncn2c1=O [Compound 19, 8-chloro-3-methylimidazo[5,1-d][1,2,3,5]tetrazin-4(3H)-one] | 60 ± 20 µM | 87 ± 4 µM |  |
| Cn1nnc2c(C(N)=S)ncn2c1=O [Compound 28, 3-methyl-4-oxo-3,4-dihydroimidazo[5,1-d][1,2,3,5]tetrazine-8-carbothioamide] | 12 ± 2 µM |  |  |
| Cn1nnc2c(Br)ncn2c1=O [Compound 18, 8-bromo-3-methylimidazo[5,1-d][1,2,3,5]tetrazin-4(3H)-one] |  |  | 80 ± 20 µM |
| CC(=O)c1ncn2c(=O)n(C)nnc12 [Compound 17, 8-acetyl-3-methylimidazo[5,1-d][1,2,3,5]tetrazin-4(3H)-one] | 115 ± 9 µM | 125 ± 4 µM |  |
| CCN(CC)C(=O)c1ncn2c(=O)n(C)nnc12 [Compound 6, N,N-diethyl-3-methyl-4-oxo-3,4-dihydroimidazo[5,1-d][1,2,3,5]tetrazine-8-carboxamide] | 80 ± 10 µM |  |  |
| Cn1nnc2c(C(N)=O)ncn2c1=O [TMZ, temozolomide, reference compound] |  | 370 ± 40 µM |  |
| CN(C)C(=O)c1ncn2c(=O)n(C)nnc12 [Compound 5, N,N,3-trimethyl-4-oxo-3,4-dihydroimidazo[5,1-d][1,2,3,5]tetrazine-8-carboxamide] | 130 ± 30 µM | 132 ± 6 µM |  |
| Cn1nnc2c(-c3ccc(Cl)cc3)ncn2c1=O [Compound 26, 8-(4-chlorophenyl)-3-methylimidazo[5,1-d][1,2,3,5]tetrazin-4(3H)-one] |  |  | 5 ± 1 µM |
| CNC(=O)c1ncn2c(=O)n(C)nnc12 [Compound 4, N,3-dimethyl-4-oxo-3,4-dihydroimidazo[5,1-d][1,2,3,5]tetrazine-8-carboxamide] | 280 ± 20 µM | 290 ± 20 µM |  |
| Cc1cnc(-c2ncn3c(=O)n(C)nnc23)o1 [Compound 27, 3-methyl-8-(5-methyloxazol-2-yl)imidazo[5,1-d][1,2,3,5]tetrazin-4(3H)-one] | 70 ± 20 µM | 123 ± 6 µM |  |
| Cn1nnc2c(C(=O)O)ncn2c1=O [Compound 3] | 370 ± 20 µM |  |  |
| Cc1ncn2c(=O)n(C)nnc12 [Compound 14, 3,8-dimethylimidazo[5,1-d][1,2,3,5]tetrazin-4(3H)-one] | 7 ± 1 µM |  |  |

Where two headings read alike, the source gives them in different places.
